{"source": "patent US6605304B1", "about": "“Silicate-containing powders providing controlled, sustained gas release” (Bernard Technologies, Inc., priority 1998, dated 2003)", "origin": "cited, not measured here", "tested_on": "mice", "conditions": "subchronic and acute oral administration"}
{"substance": "sodium chlorite", "values": [{"measurement": "chromosomal aberrations or micronuclei in the bone marrow", "value": "failed to induce any chromosomal aberrations or increased numbers of micronuclei"}]}
